Structures are written as SMILES. The list shows a part of the results, in another mix than the full data. Activity calls are given as the source filed them.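 How the source made its calls: active means mean of duplicate membrane potential ratios lying over 3 SD above or below the buffer control mean, so actives fall on both sides; inactive means the rest.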

A short description of the experiment: membrane potential effects in parental HEK293, counter-screen for CHT inhibitor project, cell-based, membrane potential dye (AID 493222).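 Further: parental cells lack the transporter so any hit is non-specific.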 Particulars: choline response, at 10 µM. For orientation: The purpose of a counterscreen is to sort out artefacts and off-target activity.
Consider `O=[N+]([O-])c1cc([N+](=O)[O-])c(Nc2ccccn2)c([N+](=O)[O-])c1`, for which the outcome was inactive.
Consider `CC1=NCCc2c1[nH]c1ccccc21.O=[N+]([O-])c1cc([N+](=O)[O-])c(O)c([N+](=O)[O-])c1`, for which the result was inactive.

The values are drawn from PubChem BioAssay AID493222 (Johns Hopkins Ion Channel Center, 2011).
